According to PubChem BioAssay AID745 (Emory University Molecular Libraries Screening Center, 2007):
Only a part is listed here, and it is no random draw. Some results for these compounds are left out of this collection, so the calls shown say nothing about other tests. Active and inactive are the calls of the source. No stated cut-off is given here; in the data, active means z-score below about -3; inactive means the rest.

Assay: inhibitors of measles virus growth in cells, primary screen, measles RdRp inhibitor project, cell-based, single point, HTS (AID 745)
Settings: infected Vero cells, GFP fluorescence, 64 h; hits give low values

Compound | z-score
CC(CN(C)C(C)(C)C)OC(=O)C(O)(c1ccccc1)c1ccccc1 (stereo unspecified) | inactive: -0.74
